In this assay the target is Fibroblast growth factor 1 (Homo sapiens, UniProt P05230). In words: Binding affinity to FGF-1 by surface plasmon resonance assay. Put shortly: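 Solution-affinity SPR on heparin-coated CM4 chips. FGF-1 measured in HBS-EP (10 mM HEPES pH 7.4, 150 mM NaCl, 3.0 mM EDTA, 0.005% polysorbate 20); FGF-2 measured in HBS-EP with 300 mM NaCl. Kd is the average of at least duplicate measurements ± SD.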

The chains behind the UniProt entries cited, without tags or fusion partners.
UniProt P05230, whole entry: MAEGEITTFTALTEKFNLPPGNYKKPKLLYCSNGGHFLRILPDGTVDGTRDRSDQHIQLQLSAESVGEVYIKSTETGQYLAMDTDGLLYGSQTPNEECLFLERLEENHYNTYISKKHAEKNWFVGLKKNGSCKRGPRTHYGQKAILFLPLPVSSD

Each structure is given as a SMILES string. pKd: −log10 of the molar value.

As usually defined, the pKd is the negative decadic logarithm of the Kd, by convention in mol/L. The molecule `CC(C)CCC[C@@H](C)[C@H]1CC[C@H]2[C@@H]3CC[C@H]4C[C@@H](O[C@@H]5O[C@H](COS(=O)(=O)[O-])[C@@H](O[C@H]6O[C@H](COS(=O)(=O)[O-])[C@@H](O[C@H]7O[C@H](COS(=O)(=O)[O-])[C@@H](O[C@H]8O[C@H](COS(=O)(=O)[O-])[C@@H](OS(=O)(=O)[O-])[C@H](OS(=O)(=O)[O-])[C@H]8OS(=O)(=O)[O-])[C@H](OS(=O)(=O)[O-])[C@H]7OS(=O)(=O)[O-])[C@H](OS(=O)(=O)[O-])[C@H]6OS(=O)(=O)[O-])[C@H](OS(=O)(=O)[O-])[C@H]5OS(=O)(=O)[O-])CC[C@]4(C)[C@H]3CC[C@]12C.[Na+].[Na+].[Na+].[Na+].[Na+].[Na+].[Na+].[Na+].[Na+].[Na+].[Na+].[Na+].[Na+]` had a negative-log Kd (pKd) of 8.10.

Source of the values: ChEMBL document CHEMBL2057149 (J Med Chem, 2012).
